The text below walks through data of patent publication EP0935963A2, “The use of MMP-13 selective inhibitors for the treatment of osteoarthritis and other matrix metalloproteinase-mediated disorders” (Pfizer Products Inc., priority 1997, dated 1999).

pIC50: −log10 of the molar value.

For test [1], the target named is T1, MMP-1 (Homo sapiens, UniProt P03956).
T1 sequence (P03956 100-469): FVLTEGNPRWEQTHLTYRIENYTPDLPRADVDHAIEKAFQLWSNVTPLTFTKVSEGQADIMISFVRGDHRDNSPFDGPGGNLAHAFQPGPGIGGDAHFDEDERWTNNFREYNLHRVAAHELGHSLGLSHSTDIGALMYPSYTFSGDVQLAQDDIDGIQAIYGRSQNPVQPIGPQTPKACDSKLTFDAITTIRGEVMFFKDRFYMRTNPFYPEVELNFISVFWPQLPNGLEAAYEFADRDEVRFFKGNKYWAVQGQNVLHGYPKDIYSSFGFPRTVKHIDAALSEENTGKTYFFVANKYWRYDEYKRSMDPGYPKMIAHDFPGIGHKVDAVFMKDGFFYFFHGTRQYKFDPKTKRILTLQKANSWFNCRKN
Briefly: biochemical. As to the method:
Rat type I collagen is radiolabeled with ^14C acetic anhydride (T.E. Cawston and A.J. Barrett, Anal. Biochem., 99, 340-345 (1979)) and used to prepare 96 well plates containing radiolabeled collagen films (Barbara Johnson-Wint, Anal. Biochem., 104, 175-181 (1980)). When a solution containing collagenase is added to the well, the enzyme cleaves the insoluble collagen which unwinds and is thus solubilized. […] Collagenase inhibitors are, therefore, compounds which reduce the radioactive counts released with respect to the controls with no inhibitor present. One specific embodiment of this assay is described in detail below. […]
100 µl of appropriate drug dilution and 100 µl of diluted enzyme are pipetted into wells of a 96 well plate containing collagen films labeled with ^14C-collagen. […] Each drug concentration and control is analyzed in triplicate. […]
The plates are incubated at 37°C for a time period such that around 30 - 50% of the available collagen is solubilized - determined by counting additional control wells at various time points. […] When the assay has progressed sufficiently, the supernatant from each well is removed and counted in a scintillation counter. The background counts (determined by the counts in the wells with no enzyme) are subtracted from each sample and the % release calculated in relation to the wells with enzyme only and no inhibitor. […]

In test [2] the target is T2, Human recombinant collagenase-1 (Homo sapiens, UniProt P03956).
T2 sequence (P03956 100-469): T1 sequence (P03956 100-469)
Nature of the test: Inhibition of Human Collagenase (MMP-1), fluorescence assay. It counts as biochemical. How it is done:
Human recombinant collagenase-1 is activated with trypsin. The amount of trypsin is optimized for each lot of collagenase-1 but a typical reaction uses the following ratio: 5 µg trypsin per 100 µg of collagenase.. The trypsin and collagenase are incubated at room temperature for 10 minutes then a five fold excess (50 mg/10 mg trypsin) of soybean trypsin inhibitor is added.
Stock solutions (10 mM) of inhibitors are made up in dimethylsulfoxide and then diluted using the following Scheme: 10 mM → 120 µM → 12 µM → 1.2 µM → 0.12 µM
Twenty-five microliters of each concentration is then added to triplicate wells of a 96 well microfluor plate. The final concentration of inhibitor will be a 1:4 dilution after addition of enzyme and substrate. Positive controls (enzyme, no inhibitor) and negative controls (no enzyme no inhibitors) are also run in triplicate on each plate.
Collagenase-1 is diluted to 240 ng/ml and 25 µl is then added to appropriate wells of the microfluor plate. […]
Fluorescence readings (360 nm excitation, 460 nm emission) are taken at time 0 and then at 20 minute intervals. […]
Fluorescence versus time is then plotted for both the blank and collagenase containing samples (data from triplicate determinations is averaged). […] Data is plotted as inhibitor concentration versus % control (inhibitor fluorescence divided by fluorescence of collagenase alone x 100). […]

One may read the pIC50 as the negative decadic logarithm of the IC50, by convention in mol/L. Consider `CNC(=O)[C@H](Cc1ccc(OC)cc1)NC(=O)C(CC(=O)NO)CC(C)C` (some centres unmarked) [Example 1, reference compound], for which the pIC50 in test [1] is 8.46; in test [2], 8.60.
